The entries are a selection whose mix differs from that of the whole data set. Activity calls are given as the source filed them.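 How the source made its calls: active means B-score under library mean minus 4 SD, starting fluorescence ratio at most library mean plus 5 SD; inactive means the rest.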

By UniProt entry, the sequences of proteins in these tests, tags left out.
UniProt O14649, whole entry: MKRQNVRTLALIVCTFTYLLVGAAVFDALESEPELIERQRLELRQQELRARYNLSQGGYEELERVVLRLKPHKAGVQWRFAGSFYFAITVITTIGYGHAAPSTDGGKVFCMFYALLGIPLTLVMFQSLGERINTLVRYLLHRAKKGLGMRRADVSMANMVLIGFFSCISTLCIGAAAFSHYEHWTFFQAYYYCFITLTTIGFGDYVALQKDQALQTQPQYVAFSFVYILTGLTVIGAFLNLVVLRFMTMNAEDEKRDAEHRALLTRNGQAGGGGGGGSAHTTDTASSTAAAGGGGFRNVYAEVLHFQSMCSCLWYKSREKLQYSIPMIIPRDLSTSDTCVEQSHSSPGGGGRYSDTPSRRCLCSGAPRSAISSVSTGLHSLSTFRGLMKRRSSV

The text below walks through data of PubChem BioAssay AID602410 (Johns Hopkins Ion Channel Center, 2012).

In this experiment the target is Potassium channel subfamily K member 3 (Homo sapiens) (UniProt O14649). The experiment can be described thus: human KCNK3 channel inhibitors, primary screen, CHO cells, FluxOR thallium flux, B-score (AID 602410). As to conditions: FluxOR fluorescence, at 10 µM.
On to `CP(=O)(Nc1ccc(Cl)cc1)Oc1ccc(F)cc1` (stereo unspecified), for which the result was inactive.
Regarding `CCN(/C(=N/P(=O)(N1CCOCC1)N1CCOCC1)N1CCOCC1)c1ccc(OC)cc1`, the result was inactive.
Next, `C[N+]1=C2C=CC=CC=C2SC12C([N+](=O)[O-])=CC([N+](=O)[O-])=C[C-]2[N+](=O)[O-]` (stereo unspecified): “inactive”; `Nc1ccc([As](=O)(O)c2ccc(N)cc2)cc1`: “inactive”.
Turning to `CC(C)(C)c1ccc(OP(C)(=O)O)cc1`, the outcome was inactive.
Take `COc1ccccc1OP(C)(=O)Nc1ccccc1Br` (stereo unspecified): the result was inactive.
Next, `O=[N+]([O-])c1cc([N+](=O)[O-])c(CCNc2ccccc2)c([N+](=O)[O-])c1`: “inactive”; `CCc1nc2c(n1)c1c(non1O)c1c2no[n+]1[O-]`: “inactive”.
In the case of `CCc1ccc(OP(C)(=O)Nc2cccnc2)cc1` (stereo unspecified), the molecule was classed as inactive.
With `Cc1ccc(NP(=O)(Oc2ccccc2)Oc2ccccc2)nc1`, the outcome was inactive.
With `CP(=O)(Oc1ccccc1)N1CCOC1=O` (stereo unspecified), the molecule was called inactive.
Next, `O=C(OCCCN1CCCC1)C(O)(c1ccccc1)C1CCCCC1` (stereo unspecified): “inactive”; `COc1ccccc1OP(C)(=O)Nc1c(C)n(C)n(-c2ccccc2)c1=O` (stereo unspecified): “inactive”; `CC(=O)N1C2C3N(C(C)=O)C1C1N(C(C)=O)C(C(N1C(C)=O)N3C(C)=O)N2C(C)=O`: “inactive”.
On to `O=[N+]([O-])c1cccc2n[nH]nc12`, for which the outcome was inactive.
Consider `COc1ccc(C2=NCC(CBr)S2)cc1` (stereo unspecified), for which the result was inactive.
As for `COc1ccc(OP(C)(=O)Nc2ccc(Br)cc2)cc1` (stereo unspecified), the outcome was inactive.
`CCN(CC)CC(O)COC(=O)C(O)(c1ccccc1)C1CCCCC1` (stereo unspecified): the call was inactive.
Regarding `CCC(C)N(CC(C)C)C(=S)SC(NC(C)=O)C(Cl)(Cl)Cl` (stereo unspecified), the molecule was called inactive.
Take `CP(=O)(Nc1ccccn1)Oc1ccc(Cl)cc1` (stereo unspecified): the result was inactive.
Consider `CCOP(C)(=S)SCC(=O)NC(C)C(=O)O` (stereo unspecified), for which the outcome was inactive.
For the molecule `O=C(OC1CN2CCC1CC2)c1cccc([N+](=O)[O-])c1` (stereo unspecified), the molecule was called inactive.
Turning to `O=[N+]([O-])c1cc([N+](=O)[O-])c(O)c([N+](=O)[O-])c1.c1ccc(Oc2ccncc2)cc1`, the molecule was called inactive.
For the molecule `CCOC(=O)c1ccc(NC(=O)C(C)(CCl)SC)cc1` (stereo unspecified), the call was inactive.
With `CCOC(=O)c1ccc(NP(C)(=O)Oc2ccc(OC)cc2)cc1` (stereo unspecified), the molecule was called inactive.
As to `Cc1cc(C)cc(OP(C)(=O)Nc2ccc(SC(F)(F)F)cc2)c1` (stereo unspecified), the call was inactive.
As to `O=C(Nc1ccncc1[N+](=O)[O-])c1ccc([N+](=O)[O-])cc1[N+](=O)[O-]`, the result was inactive.
In the case of `CCc1ccc(OP(C)(=O)N2CCN(c3ccc([N+](=O)[O-])cc3)CC2)cc1` (stereo unspecified), the call was inactive.
As for `CP(=O)(NC(=O)Nc1ccccc1)Oc1ccccc1` (stereo unspecified), the result was inactive.
As to `O=C(COc1ccccc1)OC1CN2CCC1CC2` (stereo unspecified), the outcome was inactive.
As to `CP(=O)(Oc1ccccc1)OC(c1ccccc1)C(F)(F)F` (stereo unspecified), the molecule was classed as inactive.
`CP(=O)(Nc1ccc(SC(F)(F)F)cc1)Oc1ccc(Cl)cc1` (stereo unspecified): the result was inactive.
Turning to `Cc1cccc(C)c1OP(C)(=O)Nc1ccc(SC(F)(F)F)cc1` (stereo unspecified), the molecule was classed as inactive.
For the molecule `COP1(=S)c2c(C)nn(CCC#N)c2N=C(c2ccc(F)cc2)N1C` (stereo unspecified), the call was inactive.
In the case of `COc1ccccc1OP(C)(=O)Nc1ccccc1` (stereo unspecified), the call was inactive.
On to `Cc1cc(SC(NC=O)C(Cl)(Cl)Cl)ncn1` (stereo unspecified), for which the result was inactive.
Turning to `O=P(Nc1ccccn1)(c1cccc2ccccc12)c1cccc2ccccc12`, the molecule was called inactive.
For the molecule `O=[N+]([O-])c1ccc(Nc2ccc(Oc3ccc([N+](=O)[O-])cc3[N+](=O)[O-])cc2)c([N+](=O)[O-])c1`, the result was inactive.
Next, `CP(=O)(Nc1ccccc1Br)Oc1ccccc1` (stereo unspecified): “inactive”; `CP(=S)(Nn1cnnc1)Oc1ccccc1` (stereo unspecified): “inactive”; `CCOC(=O)Nc1cccc([As](=O)(O)O)c1`: “inactive”.
`Cc1cc(SC(NC(=O)c2ccccc2)C(Cl)(Cl)Cl)nc(C(C)C)n1` (stereo unspecified): the molecule was called inactive.
With `CCCCOc1ccc(C(=O)NCC2(N3CCCCC3)CCCCC2)cc1OC`, the outcome was inactive.
To `CCOC(=O)Nc1ccc([As](=O)(O)O)c(O)c1` belongs “inactive”.
Take `CC1CCNP(=O)(N(CCCl)CCCl)O1` (stereo unspecified): the result was inactive.
To `O=[N+]([O-])c1cc([N+](=O)[O-])c(-c2ccn[nH]2)s1` belongs “inactive”; to `COc1ccc(OP(C)(=O)Nc2cccc(F)c2)cc1` (stereo unspecified), “inactive”; to `O=C(OC1CN2CCC1CC2)c1cccc2[nH]cnc12` (stereo unspecified), “inactive”.
As for `CCN(CC)C(=S)SC(NC=O)C(Cl)(Cl)Cl` (stereo unspecified), the outcome was inactive.
Next, `CC(C)NC(=O)NP(=O)(Oc1ccccc1)Oc1ccccc1`: “inactive”; `COc1ccccc1OP(C)(=O)Nc1cc(Cl)ccc1C` (stereo unspecified): “inactive”.
For `Cc1cc(C)cc(OP(C)(N)=O)c1` (stereo unspecified), the molecule was called inactive.
As to `ClCCSc1nnc(-c2cccnc2)o1`, the outcome was inactive.
Next, `CCOC(=O)c1ccc(NP(C)(=O)Oc2ccccc2)cc1` (stereo unspecified): “inactive”; `CC(C)c1ccc(OP(=O)(Nc2ccccn2)Oc2ccccc2F)cc1` (stereo unspecified): “inactive”.
Regarding `Cc1ccc(NP(C)(=O)Oc2ccccc2)c(C)c1` (stereo unspecified), the call was inactive.
On to `COC(=O)C1(C)COP(=O)(N2CCCCCC2)OC1` (stereo unspecified), for which the outcome was inactive.
On to `COc1ccccc1OP(C)(=O)Nc1ccc(C)cc1` (stereo unspecified), for which the result was inactive.
Take `Cc1cccc(C)c1OP(C)(N)=O` (stereo unspecified): the molecule was called inactive.
For the molecule `CC(C)(C)c1ccc(OP(C)(=O)Nc2ccc(SC(F)(F)F)cc2)cc1` (stereo unspecified), the result was inactive.
For `Cc1ccc(OP(=O)(Nc2ccc([N+](=O)[O-])cn2)Oc2ccc(C)cc2)cc1`, the call was inactive.
For the molecule `Cc1ccc2nc3c(c(C)c2c1)CC(C(Cl)Cl)S3` (stereo unspecified), the outcome was inactive.
In the case of `O=[N+]([O-])c1ccc2c(c1)C=Nc1ccccc1O2`, the outcome was inactive.
To `O=[N+]([O-])c1cc([N+](=O)[O-])c(Nc2cccnc2)c([N+](=O)[O-])c1` belongs “inactive”; to `COc1cc(C(=O)NCC2(N3CCOCC3)CCCCC2)ccc1OCC(C)C`, “inactive”.
Next, `O=[N+]([O-])c1ccc(-c2cc([N+](=O)[O-])c(O)c([N+](=O)[O-])c2)cc1`: “inactive”; `O=[As](O)(c1ccc(O)cc1)c1ccccc1O`: “inactive”.
For the molecule `C[As](=O)(O)c1cccc(C(=O)O)c1`, the call was inactive.
Turning to `O=[N+]([O-])c1cc(Oc2ccc([N+](=O)[O-])cc2C(F)(F)F)cc([N+](=O)[O-])c1`, the molecule was classed as inactive.
On to `COc1ccc(N/C(=N/P(=O)(N2CCOCC2)N2CCOCC2)N2CCOCC2)cc1`, for which the result was inactive.
Next, `O=P1(N(CCCl)CCCl)OCCCN1CCCl` (stereo unspecified): “inactive”; `O=P1(N(CCCl)CCCl)Nc2ccccc2N1`: “inactive”; `COc1cc(I)ccc1[As](=O)(O)O`: “inactive”.
For `COc1ccc2nc(NP(=O)(c3ccccc3)c3ccccc3)sc2c1`, the molecule was called inactive.
Turning to `Cc1c2c(nc3ccccc13)SC(C(Cl)Cl)C2` (stereo unspecified), the molecule was classed as inactive.
Regarding `CCN(CC)CCCOC(=O)C(O)(c1ccccc1)c1ccccc1`, the call was inactive.
To `Cc1cc(=O)[nH]c(N[N+](=O)[O-])n1` belongs “inactive”; to `O=C(OC1CN2CCC1CC2)C12CC3CC(CC(C3)C1)C2` (stereo unspecified), “inactive”.
Next, `CCOP(=O)(Nc1cccc2ccccc12)OCC`: “inactive”; `Nc1cccc2c([As](=O)(O)O)cccc12`: “inactive”.
As for `Cc1ccc(NCCc2c([N+](=O)[O-])cc([N+](=O)[O-])cc2[N+](=O)[O-])cc1`, the outcome was inactive.
For `CP(=O)(Nc1cccc(Br)c1)Oc1ccccc1` (stereo unspecified), the molecule was called inactive.
For `Cc1cc(C)cc(OP(C)(=O)Nc2ccccn2)c1` (stereo unspecified), the result was inactive.
Next, `CCCOP(=S)(Nc1nc(N)cc(=O)[nH]1)OCCC`: “inactive”.
Consider `Cc1ccc(C)c(NP(C)(=O)Oc2ccccc2)c1` (stereo unspecified), for which the molecule was called inactive.
Turning to `Cc1cc(C)cc(OP(C)(=O)Nc2ccc(C)cc2C)c1` (stereo unspecified), the outcome was inactive.
As for `O=[As](O)(c1cccc(O)c1)c1cccc(O)c1`, the result was inactive.
In the case of `Cc1cccc(OCC(=O)OC2CN3CCC2CC3)c1` (stereo unspecified), the molecule was classed as inactive.
Regarding `CCOC(=O)c1ccc(NP(C)(=O)Oc2cc(C)cc(C)c2)cc1` (stereo unspecified), the result was inactive.
To `O=C(OC1CN2CCC1CC2)c1ccc(Cl)cc1` (stereo unspecified) belongs “inactive”.
For the molecule `CS(=O)(=O)c1ccc(Cl)c(NC(=O)COC(=O)C(O)(c2ccccc2)c2ccccc2)c1`, the outcome was inactive.
Regarding `COc1ccccc1OP(C)(=O)Nc1cccc(Br)c1` (stereo unspecified), the outcome was inactive.
For `COc1cc(C(=O)NCC2(N3CCOCC3)CCCCC2)cc(Cl)c1OC(C)C`, the result was inactive.
Consider `O=[As](O)(O)c1cccnc1`, for which the outcome was inactive.
For `CN(C(=O)Cc1ccccc1)[C@@H]1CC[C@]2(CCCO2)C[C@H]1N1CCCC1`, the molecule was classed as inactive.
Take `CCOP1(=S)c2c(C)nn(CCC#N)c2N=C(c2ccc(F)cc2)N1C` (stereo unspecified): the molecule was called inactive.
Consider `N#CCCN(C(=O)COC(=O)C(O)(c1ccccc1)c1ccccc1)c1ccc(F)cc1`, for which the result was inactive.
Turning to `CN(C(=O)Cc1ccc(Cl)c(Cl)c1)[C@H]1CC[C@@]2(CCCO2)C[C@@H]1N1CCCC1`, the call was inactive.
For the molecule `CC1=NCCc2c1[nH]c1ccccc21.O=[N+]([O-])c1cc([N+](=O)[O-])c(O)c([N+](=O)[O-])c1`, the molecule was called inactive.
In the case of `CN(C)C(=O)c1cc([N+](=O)[O-])cc2c1-c1c(cc([N+](=O)[O-])cc1[N+](=O)[O-])C2=O`, the result was inactive.
For `O=[N+]([O-])c1ccc2c(c1)nnn2O`, the molecule was called inactive.
To `NC(=O)Nc1ccc([As](=O)(O)O)cc1` belongs “inactive”; to `O=C(O)COc1ccc([As](=O)(O)O)cc1[N+](=O)[O-]`, “inactive”; to `Nc1ccccc1[As](=O)(O)c1ccccc1`, “inactive”.
As to `O=P(Nc1nccs1)(c1ccccc1)c1nc2ccccc2s1` (stereo unspecified), the molecule was classed as inactive.
`O=P(Nc1nccs1)(Oc1ccccc1)Oc1ccccc1`: the molecule was called inactive.
Next, `O=C(O)c1cccc(Nc2c([N+](=O)[O-])cc([N+](=O)[O-])cc2[N+](=O)[O-])c1`: “inactive”; `CCOP1(=S)c2c(C)nn(CCC#N)c2N=C(c2ccccc2F)N1C` (stereo unspecified): “inactive”.
For the molecule `CS(=O)(=O)c1cc([N+](=O)[O-])c2no[n+]([O-])c2c1`, the molecule was classed as inactive.
As to `CP(=O)(Nc1ccc(SC(F)(F)F)cc1)Oc1ccccc1` (stereo unspecified), the call was inactive.
Take `Nc1cccc([As](=O)(O)c2ccccc2)c1`: the outcome was inactive.
Regarding `CCCOc1ccc(NP(C)(=O)Oc2ccc(Cl)cc2)cc1` (stereo unspecified), the molecule was classed as inactive.
To `NS(=O)(=O)c1cccc(NC(=O)COC(=O)C(O)(c2ccccc2)c2ccccc2)c1` belongs “inactive”; to `O=P1(Nc2ccc(Br)cn2)COc2ccccc2OC1`, “inactive”.
For `O=[As](O)(c1cccs1)c1cccs1`, the outcome was inactive.
Next, `Cc1ccc(OCC(=O)OC2CN3CCC2CC3)cc1` (stereo unspecified): “inactive”.
